{"sequences": {"note": "Amino acid sequences for entries named in this document (tags omitted).", "UniProt Q9GZX7, whole entry": "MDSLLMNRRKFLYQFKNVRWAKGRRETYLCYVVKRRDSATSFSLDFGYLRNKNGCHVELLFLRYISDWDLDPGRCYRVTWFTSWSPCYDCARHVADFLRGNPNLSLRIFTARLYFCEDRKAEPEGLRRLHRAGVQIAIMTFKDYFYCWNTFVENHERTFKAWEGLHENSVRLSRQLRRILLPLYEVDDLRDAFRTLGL"}, "source": "PubChem BioAssay (NCATS)", "key": {"[1]": {"experiment": "qHTS to identify inhibitors of the type 1 interferon - major histocompatibility complex class I in skeletal muscle: primary screen against the NCATS Mechanism Interrogation Plate v5.0 (MIPE) Libary (AID 1347411);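 also: plate controls were vehicle for no effect and reference inhibitor for full effect; nearly all actives have a fitted effect of over 65% in size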", "conditions": "iHSKM cells + IFN-b, HiBiT-tagged MHC-I luminescence, 24 h; at 45.8 µM (top of the series)", "how_it_was_run": "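Cells were genome-edited human myoblasts carrying a HiBit tag on endogenous HLA-B. They were treated with IFN-beta (4.0 ng/ml) and titrated compounds (top 46 uM) for 24 hrs before lytic HiBiT detection.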"}, "[2]": {"experiment": "Validation qHTS assay for inhibitors of Activation Induced Cytidine Deaminase (AID): UDG Counterscreen signal (AID 1347427); also: 0% is about no effect", "conditions": "biochemical UDG counterscreen, fluorescence signal; at 115 µM (top of the series)", "how_it_was_run": "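Counterscreen read of UDG activity (2 U/mL, 4/3x) in the FRET deamination format with AID (1 uM, 4/3x), DJC20/DJC23 substrates (250 nM, 4x), 4 h at room temperature. NaOH stop, fluorescence at 560 ex/665 em.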"}, "[3]": {"biological_target": "Single-stranded DNA cytosine deaminase (Homo sapiens) (UniProt Q9GZX7)", "experiment": "Validation qHTS assay for inhibitors of Activation Induced Cytidine Deaminase (AID): AID signal (AID 1347429); also: % is scaled to controls: 0 for no effect and ±100 for the full control effect", "conditions": "Recombinant AID, FRET ssDNA deamination with UDG, fluorescence; at 115 µM (top of the series)", "how_it_was_run": "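In this coupled qHTS, AID deaminates a FRET-labelled ssDNA substrate in the presence of UDG over 4 hr at room temperature. Compounds span up to 114 uM final.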"}, "[4]": {"experiment": "Counterscreen qHTS for small molecule stabilizers of the endoplasmic reticulum resident proteome: GLuc-NoTag assay (AID 1508627);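 also: SH-SY5Y cells given compound then 100 nM thapsigargin to empty ER calcium; 0% = thapsigargin alone and -100% = DMSO vehicle control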", "conditions": "Gaussia luciferase NoTag secretion counterscreen, luminescence, thapsigargin 100 nM for final 4 h; at 76.4 µM (top of the series)", "how_it_was_run": "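Luminescence of Gaussia luciferase secreted into the medium (coelenterazine, 0.07x final, unlysed cells) was the read-out. Human SH-SY5Y neuroblastoma cells constitutively secreting untagged GLuc received compound for 19 h, then 100 nM thapsigargin for 4 h.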"}}, "note": "The entries are a selection whose mix differs from that of the whole data set. Results filed as inconclusive are left out. Some salts and complexes are drawn in separate pieces, as the source files them; their charges need not balance. Calls of active or inactive are those of the source. Calls follow the shape of the dose curve; as a rule, active = well fitted curve in the direction sought with a large enough effect; inconclusive = small, poorly fitted or top-dose-only effect, or another doubt; inactive = no such curve, though single readings can be large; an effect the other way counts as inactive or inconclusive.", "data": [{"smiles": "C/C1=C2/N=C(C(CC(N)=O)C2(C)CCC(=O)NCC(C)OP(=O)([O-])OC2C(CO)OC(n3cnc4cc(C)c(C)cc43)C2O)C2(C)N=C(/C(C)=C3N=C(/C=C4N=C1C(CCC(N)=O)C\\4(C)C)C(CCC(N)=O)C/3(C)CC(N)=O)C(CCC(N)=O)C2(C)CC(N)=O.[C-]#N.[Co]", "note": "(centres undefined)", "values": [{"measurement": "activity change, negative = inhibition", "setting": "[1]", "result": "inactive: -22.3%"}]}, {"smiles": "N#[O+].[C-]#N.[C-]#N.[C-]#N.[C-]#N.[C-]#N.[Fe+2].[Na+].[Na+]", "values": [{"measurement": "activity, negative = inhibition", "setting": "[2]", "result": "inactive: 9.57%"}, {"measurement": "activity change, negative = inhibition", "setting": "[3]", "result": "inactive: 20.2%"}]}, {"smiles": "C/C1=C2N=C(/C=C3N=C(/C(C)=C4\\[N-][C@@](C)([C@@H]5N=C1[C@](C)(CCC(=O)NC[C@@H](C)OP(=O)([O-])O[C@H]1[C@@H](O)[C@@H](n6cnc7cc(C)c(C)cc76)O[C@@H]1CO)[C@H]5CC(N)=O)[C@@](C)(CC(N)=O)[C@@H]4CCC(N)=O)[C@@](C)(CC(N)=O)[C@@H]\\3CCC(N)=O)C(C)(C)[C@@H]/2CCC(N)=O.[C-]#N.[Co+3]", "values": [{"measurement": "activity change, negative = inhibition", "setting": "[4]", "result": "inactive: -41.8%"}]}]}
